According to ChEMBL document CHEMBL4007382, “Design, synthesis and biological evaluation of bambuterol analogues as novel inhibitors of butyrylcholinesterase” (Eur J Med Chem, 2017):

Experiments:
[1] = Selectivity ratio of Ki for human plasma BuChE assessed as second order carbamylation rate constant to Ki for equine serum BuChE assessed as second order carbamylation rate constant
Homo sapiens = species on record: Homo sapiens; test: Selectivity ratio of IC50 for human blood AChE to IC50 for human blood BuChE
[2] = Selectivity ratio of decarbamylation rate constant for human plasma BuChE to decarbamylation rate constant for equine serum BuChE

For `CN(C)C(=O)Oc1cc(OC(=O)N(C)C)cc(C(O)CNC(C)(C)C)c1` (stereo not drawn) [BAMBUTEROL], the Ratio Ki [1] was 50, the Ratio IC50 (Homo sapiens) was 10000 and the Selectivity ratio [2] was 5.
